From patent US12544356B2, “Combination of a chromene compound and a second active agent” (EUCLISES PHARMACEUTICALS, INC., priority 2016, dated 2026)

Test: Body weight in HT-29 xenograft study (Example 1)
Assay type: in vivo, CB17SCID male mice
Conditions: erlotinib 50 mg/kg oral daily
Procedure: 48 CB17SCID male mice were implanted with 2.5×10^6 HT29 cells. Growth of the tumor was calculated for each animal using a caliper and the equation: V=π×ab^2/6.
Mouse weight and tumor volume measurements were taken on days 0, 3, 6, 9, 12, 15, 18, 21, and 22 following randomization.

C#Cc1cccc(Nc2ncnc3cc(OCCOC)c(OCCOC)cc23)c1 [Erlotinib, erlotinib, reference compound]
Body weight (Day 6): 22.3 g
Body weight (Day 9): 20.6 g
Body weight (Day 12): 20.6 g
Body weight (Day 18): 20.7 g
Body weight (Day 22): 21.2 g
